In ChEMBL document CHEMBL3232887, “Propargyl-linked antifolates are dual inhibitors of Candida albicans and Candida glabrata” (J Med Chem, 2014):

Tests used:
[1] = Selectivity ratio of IC50 for human DHFR to IC50 for Candida glabrata DHFR
[2] = Selectivity ratio of IC50 for human DHFR to IC50 for Candida albicans DHFR

Compound: CCc1nc(N)nc(N)c1C#CC(C)c1cnc(-c2ccccc2)nc1 (configuration not stated)
- Ratio IC50 [1]: 8
- Ratio IC50 [2]: 5
